Results on 1 substance are retold here after patent US7312322B1, “Genetic sequences encoding steroid and juvenile hormone receptor polypeptides and insecticidal modalities therefor” (priority 1998, dated 2007).

The assay addresses T1, linker and ligand-binding regions of the L. cuprina EcR polypeptide and partner protein (USP polypeptide) (Lucilia cuprina, UniProt O18531).
T1 construct: made in house; host or cells: recombinant baculovirus in insect Sf9 and Sf21 cells (extracts)
T1 sequence (O18531 366-757): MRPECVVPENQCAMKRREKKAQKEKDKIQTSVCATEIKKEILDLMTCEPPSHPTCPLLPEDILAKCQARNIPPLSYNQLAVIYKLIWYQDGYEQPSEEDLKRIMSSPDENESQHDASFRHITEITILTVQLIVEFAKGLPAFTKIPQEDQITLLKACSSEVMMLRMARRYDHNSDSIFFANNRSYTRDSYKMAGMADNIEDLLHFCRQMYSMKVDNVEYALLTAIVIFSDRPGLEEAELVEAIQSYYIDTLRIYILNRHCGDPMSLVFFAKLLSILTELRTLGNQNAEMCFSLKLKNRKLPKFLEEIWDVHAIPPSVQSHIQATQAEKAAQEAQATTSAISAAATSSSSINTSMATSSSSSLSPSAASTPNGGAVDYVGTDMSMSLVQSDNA
Nature of the assay: [3H]ponasterone A binding assay in Sf9 and Sf21 cells infected by recombinant baculovirus (modified method of Yund et al). To be noted: compared to the ecdysone holoreceptor in L. cuprina embryos; no specific binding with control virus (FIG. 3).

Turning to [^3H]ponasterone A, the “binding of labelled ligand in cells infected by the recombinant baculovirus” value was “significant increase in the binding”.
